Evaluation data for nine compounds are collected here from patent US6340697B1, “Oxime derivatives and agricultural chemicals containing the same” (Dainippon Ink and Chemicals, Inc., priority 1997, dated 2002).

One test relates to Phytophthora infestans. It is filed as in vivo. As to conditions: tomato foliage spray, effective component 250 ppm, degree of disease after 5 days.
The subject of a further test is Pyricularia oryzae. It counts as in vivo. As to conditions: rice foliage spray, effective component 250 ppm, degree of disease after 7 days.

Regarding `Cc1nsnc1C(=NOCc1csc(NC(=O)CC(C)C)n1)c1ccccc1` [8-(b)-8], the Evaluation result in the test on Phytophthora infestans is “B (grade “B” was selected when the number of diseased plants, which include plants with lesions or withered plants, is around 10% among the total numbers of plants)”. Still for that read-out and setting: under `Cc1nsnc1C(=NOCc1ccccn1)c1ccc(F)cc1` [4-(b)-13] stands “B (grade “B” was selected when the number of diseased plants, which include plants with lesions or withered plants, is around 10% among the total numbers of plants)”; under `Cc1ccc(CON=C(c2ccccc2)c2nsnc2C)nc1` [1-(b)-9], “B (grade “B” was selected when the number of diseased plants, which include plants with lesions or withered plants, is around 10% among the total numbers of plants)”. Still for that read-out and setting: to `Cc1snnc1C(=NOCc1csc(N)n1)c1ccccc1` [8-(a)-1] belongs “B (grade “B” was selected when the number of diseased plants, which include plants with lesions or withered plants, is around 10% among the total numbers of plants)”. The same measure, in the same setting: to `Cc1snnc1C(=NOCc1ccccn1)c1ccc(Cl)cc1` [4-(a)-3] belongs “B (grade “B” was selected when the number of diseased plants, which include plants with lesions or withered plants, is around 10% among the total numbers of plants)”; to `CCC(C)C(=O)Nc1nc(CON=C(c2ccccc2)c2nsnc2C)cs1` (stereo not drawn) [8-(b)-9], “B (grade “B” was selected when the number of diseased plants, which include plants with lesions or withered plants, is around 10% among the total numbers of plants)”. `Cc1snnc1C(=NOCc1nccs1)c1ccccc1` [6-(a)-19]: the Evaluation entry was “B (grade “B” was selected when the number of diseased plants, which include plants with lesions or withered plants, is around 10% among the total numbers of plants)” in the test on Pyricularia oryzae and “B (grade “B” was selected when the number of diseased plants, which include plants with lesions or withered plants, is around 10% among the total numbers of plants)” in the test on Phytophthora infestans. Turning to `Cc1cccc(C(=NOCc2ccccn2)c2nnsc2C)c1` [4-(a)-22], the Evaluation entry in the test on Pyricularia oryzae is reported as “B (grade “B” was selected when the number of diseased plants, which include plants with lesions or withered plants, is around 10% among the total numbers of plants)”; with Phytophthora infestans it was “B (grade “B” was selected when the number of diseased plants, which include plants with lesions or withered plants, is around 10% among the total numbers of plants)”. For the compound `Cc1nsnc1C(=NOCc1nccs1)c1ccccc1` [6-(b)-19], the Evaluation entry was “B (grade “B” was selected when the number of diseased plants, which include plants with lesions or withered plants, is around 10% among the total numbers of plants)” in the test with Pyricularia oryzae and “B (grade “B” was selected when the number of diseased plants, which include plants with lesions or withered plants, is around 10% among the total numbers of plants)” in the test on Phytophthora infestans.
